Measurements reported in US20250236589A1, “THERAPEUTIC PHENETHYLAMINE COMPOSITIONS AND METHODS OF USE” (Cybin IRL Limited, priority 2022, published 2025).

Protein sequences, listed by entry. Tags and fused reporters are not part of them. Residues count along the entry.
UniProt P28335, 33-458 limits assumed: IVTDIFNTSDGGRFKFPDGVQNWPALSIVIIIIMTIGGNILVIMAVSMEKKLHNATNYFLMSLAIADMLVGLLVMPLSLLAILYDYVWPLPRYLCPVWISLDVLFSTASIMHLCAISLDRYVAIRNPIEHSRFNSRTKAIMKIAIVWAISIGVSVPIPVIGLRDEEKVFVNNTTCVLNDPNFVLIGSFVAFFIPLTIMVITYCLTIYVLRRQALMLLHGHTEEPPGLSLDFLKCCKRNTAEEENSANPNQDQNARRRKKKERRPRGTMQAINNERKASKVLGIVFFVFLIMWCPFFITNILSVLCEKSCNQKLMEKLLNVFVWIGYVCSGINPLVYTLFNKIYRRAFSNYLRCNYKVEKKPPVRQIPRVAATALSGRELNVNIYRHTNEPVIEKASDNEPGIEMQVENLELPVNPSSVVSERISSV

Biological target: 5-HT2C receptor (Homo sapiens (Human), UniProt P28335)
Test: 5-HT2C functional assay, TRUPATH (BRET)
Details: for EC50: read-out: 5-HT2C EC50; for 5-HT2C Emax: relative to 5-HT

For `C#CCCCSc1cc(OC)c(CCN)cc1OC`, which EC50 is on record?
Its EC50 is 13.1 nM.

And the “5-HT2C Emax” value?
Its value is 84%.

What does the source list for `COc1cc(SCC#N)c(OC)cc1CCN`?
EC50: 35.6 nM; 5-HT2C Emax: 84%
